Chains of the proteins cited; added tags and fusions are not shown. Residues count along the entry.
UniProt P28335, 33-458: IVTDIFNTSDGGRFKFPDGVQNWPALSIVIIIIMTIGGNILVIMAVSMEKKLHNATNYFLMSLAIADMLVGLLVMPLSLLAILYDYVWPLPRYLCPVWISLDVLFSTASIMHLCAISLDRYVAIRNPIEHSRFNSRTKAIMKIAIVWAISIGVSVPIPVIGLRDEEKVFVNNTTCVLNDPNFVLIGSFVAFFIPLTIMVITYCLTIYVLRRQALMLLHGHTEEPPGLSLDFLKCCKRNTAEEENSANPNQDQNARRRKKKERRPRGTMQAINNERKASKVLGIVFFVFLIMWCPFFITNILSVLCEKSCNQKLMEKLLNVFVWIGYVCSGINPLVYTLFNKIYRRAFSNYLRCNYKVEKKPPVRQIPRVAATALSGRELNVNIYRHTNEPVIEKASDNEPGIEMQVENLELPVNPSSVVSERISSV

According to patent publication US9862674B2, “Therapeutic compounds and methods of use” (University of Florida Research Foundation, Inc., priority 2007, dated 2018):

Molecular target: 5HT2C receptors (Homo sapiens, UniProt P28335)
Assay: Radioreceptor saturation and competition binding, [3H]-mesulergine labeled 5-HT2C receptor membranes from transfected CHO-K1 cells
Conditions: saturation binding

Q: With [^3H]-mesulergine as the substance, how does the Kd (read-out: KD at 5HT2C receptors) read?
A: 0.88 ± 0.03 nM

Q: What about the “Bmax of 5HT2C receptors labeled” value of the same substance?
A: 8.37±0.15 pmol/mg prot
